From US20220204624A1 (published 2022)

How the values were obtained:
Experiment in all cases: Octet
[1] = molecular target: 1C11_H3.239_L3.144 (XENP25825)
[2] = molecular target: 1C11_H3.239_L3.148 (XENP25828)
[3] = molecular target: 1C11_H3.240_L3.144 (XENP25826)
[4] = molecular target: 1C11_H3.241_L3.148 (XENP25830)
[5] = molecular target: 1C11_H3.240_L3.148 (XENP25829)
[6] = molecular target: 1C11_H3.241_L3.144 (XENP25827)
[7] = molecular target: 1C11_H3.85_L3
[8] = molecular target: 1C11_H3.78_L3
[9] = molecular target: 1C11_H3.82_L3
[10] = molecular target: 1C11_H3.154_L3
[11] = molecular target: 1C11_H3.50_L3
[12] = molecular target: 1C11_H3.83_L3
[13] = molecular target: 1C11_H3.168_L3
[14] = molecular target: 1C11_H3.74_L3
[15] = molecular target: 1C11_H3.80_L3
[16] = molecular target: 1C11_H3.150_L3
[17] = molecular target: 1C11_H3.158_L3
[18] = molecular target: 1C11_H3.43_L3
[19] = molecular target: 1C11_H3.159_L3
[20] = molecular target: 1C11_H3.59_L3
[21] = molecular target: 1C11_H3.62_L3
[22] = molecular target: 1C11_H3.188_L3
[23] = molecular target: 1C11_H3.237_L3 (XENP25332)
[24] = molecular target: 1C11_H3.235_L3 (XENP25330)
[25] = molecular target: 1C11_H3.238_L3 (XENP25333)
[26] = molecular target: 1C11_H3.236_L3 (XENP25331)
[27] = molecular target: 1C11_H3.143_L3
[28] = molecular target: 1C11_H3.147_L3
[29] = molecular target: 1C11_H3.91_L3
[30] = molecular target: 1C11_H3.96_L3
[31] = molecular target: 1C11_H3.41_L3
[32] = molecular target: 1C11_H3.95_L3
[33] = molecular target: 1C11_H3.120_L3
[34] = molecular target: 1C11_H3.1_L3
[35] = molecular target: 1C11_H3.90_L3
[36] = molecular target: 1C11_H3.97_L3
[37] = molecular target: 1C11_H3.148_L3
[38] = molecular target: 1C11_H3.125_L3
[39] = molecular target: 1C11_H3.134_L3
[40] = molecular target: 1C11_H3.86_L3
[41] = molecular target: 1C11_H3.7_L3

B1: PD-1 (receptor)
chain: LDSPDRPWNPPTFSPALLVVTEGDNATFTCSFSNTSESFVLNWYRMSPSNQTDKLAAFPEDRSQPGQDCRFRVTQLPNGRDFHMSVVRARRNDSGTYLCGAISLAPKAQIKESLRAELRVTERRAEVPTAHPSPSPRPAGQFQ
[1]
  Kd: 42.6 nM
[2]
  Kd: 44.7 nM
[3]
  Kd: 43.1 nM
[4]
  Kd: 33.3 nM
[5]
  Kd: 27.5 nM
[6]
  Kd: 40.5 nM
[7]
  Kd: 17.8 nM
[8]
  Kd: 47.5 nM
[9]
  Kd: 16 nM
[10]
  Kd: 22.4 nM
[11]
  Kd: 18 nM
[12]
  Kd: 35.7 nM
[13]
  Kd: 22.5 nM
[14]
  Kd: 39 nM
[15]
  Kd: 38.8 nM
[16]
  Kd: 18.9 nM
[17]
  Kd: 15.9 nM
[18]
  Kd: 16 nM
[19]
  Kd: 22.9 nM
[20]
  Kd: 9.74 nM
[21]
  Kd: 16.2 nM
[22]
  Kd: 53.2 nM
[23]
  Kd: 34.4 nM
[24]
  Kd: 31.4 nM
[25]
  Kd: 38.4 nM
[26]
  Kd: 39.4 nM
[27]
  Kd: 31.9 nM
[28]
  Kd: 20.4 nM
[29]
  Kd: 24.7 nM
[30]
  Kd: 23 nM
[31]
  Kd: 34.4 nM
[32]
  Kd: 20 nM
[33]
  Kd: 21.4 nM
[34]
  Kd: 24.2 nM
[35]
  Kd: 25.3 nM
[36]
  Kd: 24.2 nM
[37]
  Kd: 22.6 nM
[38]
  Kd: 18 nM
[39]
  Kd: 21.7 nM
[40]
  Kd: 19 nM
[41]
  Kd: 41.9 nM
